As usually defined, the inhibition is the change of the read-out against control, counted positive when it falls.

The entries are a selection whose mix differs from that of the whole data set. The source made the active and inactive calls. No stated cut-off is given here; in the data, active means inhibition above about 75%; inactive means the rest.

The nature of this assay: counter-screen for Nox1 inhibitors: inhibitors of luminol chemiluminescence (AID 1823). Conditions: HRP/luminol/H2O2 chemiluminescence counterscreen; at 6.7 µM; hits give high values. A general note: A counterscreen serves to expose hits that act by an unwanted route or on another target.
Consider `O=[N+]([O-])C1([N+](=O)[O-])COCOC1`, for which the inhibition was inactive: -2.25%.

The values are drawn from PubChem BioAssay AID1823 (The Scripps Research Institute Molecular Screening Center, 2009).
